The source of these data is patent US7713714B2, “Isolated nona- and decapeptides which bind to HLA molecules, and the use thereof” (Ludwig Institute for Cancer Research, priority 1997, dated 2010).

Like-named read-outs stand apart in the source and are kept apart here.

Assay [1] concerns TILN LAU 132 and TILN LAU 203. The assay can be described thus: 51Cr release antigen recognition assay, TILN LAU 132 and TILN LAU 203 (Example 14). Type of assay: cell-based, human. Conditions: by the two TILN populations. The procedure:
The derivatives described supra were then tested for their relative antigenic activity. In these experiments, two TILN populations, […] 132 and […] 203, preparation of which is described, supra, and a panel of ten different cytolytic T cell lines were tested. Of the ten CTLs, five were derived from infiltrating lymphocytes or tumor infiltrating lymph nodes, and five were from normal donor peripheral blood lymphocytes. […] Antigen recognition was assessed in a ^51Cr release assay. […] The ^51Cr was measured in supernatant, harvested after four hours of incubation at 37° C. Percent lysis was determined by subtracting spontaneously released ^51Cr from ^51Cr released with the tested, divided by a figure obtained by subtracting spontaneous release from total ^51Cr, and multiplying the resulting figure by 100. Titration was carried out over concentrations ranging from 10^-5 to 10^-13M.

Assay [2] has as its system panel of ten different cytolytic T cell lines. Briefly: 51Cr release antigen recognition assay, panel of ten cytolytic T cell lines (Example 14). Type of assay: cell-based, human. Particulars: ten CTLs tested.
The test system of assay [3] is CTL clones from TILN LAU 203. Briefly: Antigen recognition assay, CTL clones derived from TILN LAU 203 by limiting dilution. Type of assay: cell-based, human.
In assay [4] the test system is Melan-A monospecific CTL lines. The assay can be described thus: CTL assay, peptide titration on Melan-A monospecific CTL lines after tetramer-guided sorting. Type of assay: cell-based, human. Conditions: for EC50: read-out: (A) Peptide [nM] 50%; for (B) Relative antigenic activity: relative to peptide 2.
Assay [5] concerns panel of 13 CTL clones. Briefly: 51Cr release assay, panel of 13 CTL clones specific for HLA-A*0201/SEQ ID NO: 2. Type of assay: cell-based, human.
Assay [6] concerns TILN LAU 203. The assay can be described thus: 51Cr release assay, TILN recognition of peptide on T2 cells, TILN LAU 203. Conditions: Table I.
For assay [7], the system named is TILN LAU 132. Briefly: 51Cr release assay, TILN recognition of peptide on T2 cells, TILN LAU 132. Conditions: Table I.
Setting [8] is: Culture stimulated with SEQ ID NO: 1.
Setting [9] is: Culture stimulated with SEQ ID NO: 2.
Where [10] appears, read: Culture stimulated with SEQ ID NO: 9.
Where [11] appears, read: Culture stimulated with SEQ ID NO: 15.
The mark [12] stands for this setting: Culture stimulated with SEQ ID NO: 16.
[13] abbreviates: [nM]50% SEQ ID NO: 2 / [nM]50% test peptide.
The mark [14] stands for this setting: read-out: Peptide [nM] 50%, T2 targets, effector:target 30:1, concentration giving 50% of maximum activity.

As to AAAGIGILTV [SEQ ID NO: 15], the “recognized better than SEQ ID NO: 1” value in assay [1] is reported as 20-60 fold. Moreover, the “CTLs that recognized the peptide better than SEQ ID NO: 1 or 2” value in assay [2] is given as 8 of 10. Also, in assay [3] (11 clones, better = relative antigenic activity at least 10 fold greater), the “clones that recognized the peptide better than the comparison peptide(s)” value is “Nine CTLs”. The “concentrations at which one of the clones recognized the peptide” value in assay [3] (one clone) is “nanomolar concentrations”. The EC50 amounted to 0.04 nM in assay [4] (setting [8]); 0.04 nM in assay [4] (setting [9]); 0.08 nM in assay [4] (setting [10]); 0.15 nM in assay [4] (setting [11]); 0.15 nM in assay [4] (setting [12]). Also, the “(B) Relative antigenic activity” value in assay [4] (setting [8]) is reported as 500; in assay [4] (setting [9]) it was 625; in assay [4] (setting [10]), 437; in assay [4] (setting [11]), 166; in assay [4] (setting [12]), 333.
As for “AAGIGILTVI [SEQ ID NO: 3, reference compound]”, the “recognition of peptide/HLA-A2 complexes by the CTLs” value in assay [5] was “None of the CTLs recognized”. Moreover, the Relative activity was 0.06 in assay [6] (setting [13]) and 0.05 in assay [7] (setting [13]). Further, the EC50 came to 600 nM in assay [6] (setting [14]) and 300 nM in assay [7] (setting [14]).
